{
  "source": "paper PMC11399425",
  "about": "“Tricyclic and tetracyclic antidepressants upregulate VMAT2 activity and rescue disease-causing VMAT2 variants” (Neuropsychopharmacology, 2024)",
  "tested_on": "monoamine transporter mRNA (VMAT2, VMAT1, DAT, NET, SERT)",
  "assay": "RT-qPCR of endogenous monoamine transporters mRNA in BE(2)-M17 cells",
  "format": "cell-based, human",
  "conditions": "10 μM, 18 h",
  "data": [
    {"smiles": "CN1CCN2c3ccccc3Cc3ccccc3C2C1", "note": "(stereo not shown) [MIA, Mianserin]", "values": [
      {"measurement": "Monoamine transporter mRNA (including VMAT2)", "result": "no upregulation in any monoamine transporter mRNA"}
    ]}
  ]
}
